{"source": "patent US20100330604A1", "about": "“QUANTIFICATION OF CHANGES IN THE DEGREES OF ORDER OF CELLULAR AND VIRAL MEMBRANES AND APPLICATIONS TO DIAGNOSIS, TREATMENT AND DRUG SCREENING” (priority 2007, published 2010)", "test_system": "platelets", "experiment": "Shear Induced Platelet activation (SIPA): high Rf platelet subpopulation", "assay_type": "cell-based", "conditions": "pre-incubation of platelets to block actin polymerization", "data": [{"substance": "latruncullin B", "values": [{"measurement": "generation of the high Rf platelet population during the shear treatment", "value": "abrogated"}]}]}
